The results in this text go back to patent US20260284036A1 (priority 2023, published 2026).

The nature of series [1]: Apparent bioavailability of MCAM in dogs, subcutaneous vs oral (plasma concentrations). As to conditions: s.c. 10 mg/kg vs p.o. 30 mg/kg (3-fold increase in dose).
In series [2] the test system is ventilatory depressant effects of fentanyl. The series is described as follows: Ventilatory depressant effects of fentanyl in rhesus monkeys (head plethysmography, minute volume VE) after oral methocinnamox. The conditions noted are these: for antagonism of the ventilatory depressant effects of fentanyl (shift of fentanyl dose-response curve, minute volume VE): oral (nasogastric intubation) 0.1, 0.32, 1.0 mg/kg [HCl], fentanyl subcutaneous, four rhesus monkeys.

Series [3] in a line: Apparent bioavailability of MCAM in rats, subcutaneous vs oral (plasma concentrations). As to conditions: s.c. 30 mg/kg vs p.o. 100 mg/kg (3-fold increase in dose).
For series [4], the system named is antinociceptive effects of fentanyl. Briefly: Antinociceptive effects of fentanyl in rats (warm water 50° C. tail withdrawal latency) after oral methocinnamox. The conditions noted are these: for antagonism of the antinociceptive effects of fentanyl (tail withdrawal latency): oral (gastric intubation) 100 mg/kg [base], fentanyl intraperitoneal up to 0.1 mg/kg, 50° C. water, male rats; for time after oral administration at which sensitivity to antinociceptive effects of fentanyl returned to control / duration of blockade of the antinociceptive effects of fentanyl: single oral dose 100 mg/kg (free base), rats; for duration of blockade of the antinociceptive effects of fentanyl: 100 mg/kg.

Setting [5] is: listed as MCAM hydrochloride (HCl), HCl.

As for `Cc1ccc(/C=C/C(=O)N[C@@]23CCC(=O)[C@@H]4Oc5c(O)ccc6c5[C@@]42CCN(CC2CC2)[C@@H]3C6)cc1`, the “increase in exposure (area under the curve; AUC) from s.c. to p.o.” value in series [1] and in series [3] was 3 fold each time. Further, the entries for the “antagonism of the ventilatory depressant effects of fentanyl (shift of fentanyl dose-response curve, minute volume VE)” value in series [2] and in series [2] (listed as MCAM) were “antagonized the ventilatory depressant effects of fentanyl in all four monkeys” and “attenuated the ventilatory depressant effects of fentanyl”, respectively. Also, in series [2] (single oral (nasogastric) dose 0.1-1.0 mg/kg, rhesus monkeys), the “duration of effectiveness against ventilatory depressant effects of fentanyl after administration” value is listed as “up to 8 days”.
Regarding methocinnamox HCl, in series [4] (HCl), the “antagonism of the antinociceptive effects of fentanyl (tail withdrawal latency)” value (from here on “antagonism … (tail withdrawal latency)”) is “blocking completely the effects of fentanyl up to a dose of 0.1 mg/kg” and the “duration of blockade of the antinociceptive effects of fentanyl” value (shortened to “duration of blockade … of fentanyl”) is reported as “up to 21 days”. Besides, in series [4] (setting [5]), the “antagonism … (tail withdrawal latency)” value was “absence of any increase in tail withdrawal latency up to a dose of 0.1 mg/kg fentanyl” and the “duration of blockade … of fentanyl” value is listed as “at least 21 days”. In addition, the “time after oral administration at which sensitivity to antinociceptive effects of fentanyl returned to control” value in series [4] is recorded as 45 days.
Regarding methocinnamox maleate, in series [4], the “antagonism … (tail withdrawal latency)” value is listed as “blocking completely the effects of fentanyl up to a dose of 0.1 mg/kg”, the “time after oral administration at which sensitivity to antinociceptive effects of fentanyl returned to control” value turned out to be 45 days and the “duration of blockade … of fentanyl” value is “up to 21 days”. In series [4] (listed as MCAM maleate), the “antagonism … (tail withdrawal latency)” value is recorded as “absence of any increase in tail withdrawal latency up to a dose of 0.1 mg/kg fentanyl” and the “duration of blockade … of fentanyl” value is reported as “at least 21 days”.
